Test results: paper PMC10685803 (RSC Chemical Biology, 2023)

Target: SUMO−1 (residues 1–97 hSUMO1) (human, UniProt P63165 1-97)
Test: NMR titration

B1: ^15N-NSIM-DHB_(DAXX)/FAM-SPEP7 complex (pre-formed, saturated) (complex)
chain: MATANSIIVLDDDDEDEAAAQPGPSHPLPNAASPGAEAPSSSEPHGARGSSSSGGKKCYKLENEKLFEEFLELCKMQTADHPEVVPFLYNRQQRAHSLFLASAEFCNILSRVLSRARSRPAKLYVYINELCTVLKAHSAKKKLN
modifications: FAM on the N-terminus; hydrocarbon staple i,i+7 (R8 to S5), positions in Fig. 4C
Question: How did the Kd turn out when B1 was run?
Answer: ~22 µM
